Target: T1, human platelet phospholipase A2 (Homo sapiens, UniProt P14555)
T1 construct: a preparation of human platelet phospholipase A2; from tissue; host or cells: human platelets
T1 sequence (P14555 21-144): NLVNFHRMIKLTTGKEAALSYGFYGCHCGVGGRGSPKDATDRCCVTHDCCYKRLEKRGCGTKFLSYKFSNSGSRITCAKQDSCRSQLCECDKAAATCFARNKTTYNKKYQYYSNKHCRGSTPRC
Test: Inhibition of human platelet phospholipase A2 (14C-oleate E. coli substrate)
Type: biochemical
Procedure: The activity of the compounds of the invention against phospholipase A2 is determined using a preparation of human platelet phospholipase A2 with a specific activity of 180 nmol/min/mg as the enzyme source. Polypropylene 15-ml test tubes are utilized as the reaction vessels. All drug samples are run in duplicate, with "blank" and "control" (no test compound) groups run in triplicate. […] Test compounds are dissolved in DMSO, and diluted to a projected final concentration of either 50 or 10 μM in 550 μl HEPES buffer at pH 7.0. A 1:7 dilution of human platelet PLA2 in HEPES buffer (5 μl) is added to each test tube, followed by gentle vortexing for 3 seconds. […]
The plate is developed with an 80:20:1 mixture of petroleum ether-diethyl ether-acetic acid. […] The plate is scored above the origin, cut along the score with scissors, and the reactant (origin) and product portions of each channel are put into separate scintillation vials. […] The vials are shaken vigorously for 5 sec, and the radioactive ^14 C in each vial is measured with a scintillation counter, which provides the counts-per-minute (cpm) for each sample. […]
The percentage of phospholipid hydrolyzed is calculated by the formula: […]
The inhibition of phospholipase A2 by the test compounds is expressed as a percent inhibition relative to the control group: […]

Cc1cc2c(C(C)C)c(O)c(O)c(C=O)c2c(O)c1-c1c(C)cc2c(C(C)C)c(O)c(O)c(C=O)c2c1O [Gossypol, reference compound]
IC50: 1000 nM

Source: patent publication US5464865A, “4-aryl- and 4-arylthio-5-hydroxy-2(5H)-furanones as inhibitors of phospholipase A2” (Ortho Pharmaceutical Corporation, priority 1993, dated 1995)
